scFv variants of Ab-14 (heavy chain) against a SARS-CoV-2 spike peptide

Target: peptide PDVDLGDISGINAS, taken from heptad repeat 2 (HR2) of SARS-CoV-2 spike.

Parent: Ab-14, a human scFv built as VH, a 15-residue (Gly4Ser)3 linker, VL. Only the CDRs of the heavy chain vary.
VH: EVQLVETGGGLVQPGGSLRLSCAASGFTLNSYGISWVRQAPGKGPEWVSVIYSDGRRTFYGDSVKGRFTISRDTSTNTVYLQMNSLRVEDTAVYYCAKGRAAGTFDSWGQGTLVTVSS
VL: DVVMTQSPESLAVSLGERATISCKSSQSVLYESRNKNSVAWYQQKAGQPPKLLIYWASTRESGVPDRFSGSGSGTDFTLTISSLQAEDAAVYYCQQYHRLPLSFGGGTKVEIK

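The parent was found by panning a naive human phage display library on the peptide. The library (AAYL49) carries one to three amino acid substitutions per variant, with no insertions or deletions. The scFvs were displayed on barcoded MATa yeast, the peptide on MATalpha yeast. Pairs that bind mate more often; barcode pairs of the diploids are counted by sequencing. Scores were corrected for input abundance and mapped to Kd with protein pairs of known affinity run in the same pool. The assay was run in three technical replicates.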

Changes read parent residue, position, new residue, counted from the first residue of the VH shown.
Values are log10 of the apparent Kd in nM; lower means stronger binding.
The mean shown is taken over the replicates in which the pair was detected.
"ND" means that the variant was in the library but no mating with the target was seen in that replicate; the authors take this as a sign of poor binding, and no number exists.
As a blank, each scFv also met three strains without target: over library AAYL49, 15% of these pairings were detected, typically at 4.06 and seldom below 2.83. The control count says in how many pairings with the empty strains this scFv gave a signal, with their mean in brackets.

{"changes": "S31C Y52T T104A", "log10 Kd, replicates": "ND ND ND", "mean, log10 nM": "ND", "control signals": "0/9"}
{"changes": "S35P", "log10 Kd, replicates": "ND ND ND", "mean, log10 nM": "ND", "control signals": "0/9"}
{"changes": "Y32I Y60Q S63K", "log10 Kd, replicates": "2.86 ND ND", "mean, log10 nM": "2.86", "control signals": "0/9"}
{"changes": "L29S V50H S107N", "log10 Kd, replicates": "ND ND ND", "mean, log10 nM": "ND", "control signals": "1/9 (2.92)"}
{"changes": "G33R V50Q A102Y", "log10 Kd, replicates": "4.12 3.15 ND", "mean, log10 nM": "3.64", "control signals": "1/9 (3.45)"}
{"changes": "T58N T104V F105G", "log10 Kd, replicates": "ND ND ND", "mean, log10 nM": "ND", "control signals": "0/9"}
{"changes": "F59R G61N R100A", "log10 Kd, replicates": "3.20 2.07 ND", "mean, log10 nM": "2.63", "control signals": "0/9"}
{"changes": "V50L G103A", "log10 Kd, replicates": "ND ND ND", "mean, log10 nM": "ND", "control signals": "2/9 (3.00)"}
{"changes": "G61H V64N D106E", "log10 Kd, replicates": "ND ND ND", "mean, log10 nM": "ND", "control signals": "0/9"}
{"changes": "Y52R D62S A101M", "log10 Kd, replicates": "ND ND ND", "mean, log10 nM": "ND", "control signals": "0/9"}
{"changes": "G55H R57N S63C", "log10 Kd, replicates": "ND ND ND", "mean, log10 nM": "ND", "control signals": "0/9"}
{"changes": "I51N D54S T104G", "log10 Kd, replicates": "ND ND ND", "mean, log10 nM": "ND", "control signals": "0/9"}
{"changes": "F27D Y60M F105R", "log10 Kd, replicates": "ND 3.09 ND", "mean, log10 nM": "3.09", "control signals": "0/9"}
{"changes": "I34K R56T", "log10 Kd, replicates": "ND ND ND", "mean, log10 nM": "ND", "control signals": "1/9 (5.53)"}
{"changes": "S31T Y52W F105P", "log10 Kd, replicates": "ND ND ND", "mean, log10 nM": "ND", "control signals": "1/9 (3.71)"}
{"changes": "T58D S63W G99A", "log10 Kd, replicates": "ND ND ND", "mean, log10 nM": "ND", "control signals": "0/9"}
{"changes": "S53W G99E", "log10 Kd, replicates": "ND ND ND", "mean, log10 nM": "ND", "control signals": "0/9"}
{"changes": "A102K", "log10 Kd, replicates": "4.35 3.44 ND", "mean, log10 nM": "3.90", "control signals": "3/9 (4.21)"}
{"changes": "S31G S35D G55W", "log10 Kd, replicates": "ND ND ND", "mean, log10 nM": "ND", "control signals": "3/9 (3.72)"}
{"changes": "F27V V50A I51Y", "log10 Kd, replicates": "ND ND ND", "mean, log10 nM": "ND", "control signals": "1/9 (3.75)"}
{"changes": "L29V Y52P D106C", "log10 Kd, replicates": "ND ND ND", "mean, log10 nM": "ND", "control signals": "0/9"}
{"changes": "Y52A V64T T104Q", "log10 Kd, replicates": "ND ND ND", "mean, log10 nM": "ND", "control signals": "1/9 (3.28)"}
{"changes": "T58Q G61A T104Q", "log10 Kd, replicates": "0.33 0.58 0.50", "mean, log10 nM": "0.47", "control signals": "2/9 (4.77)"}
{"changes": "V50R T58N G103N", "log10 Kd, replicates": "ND ND ND", "mean, log10 nM": "ND", "control signals": "0/9"}
{"changes": "N30M S35I T104G", "log10 Kd, replicates": "ND ND ND", "mean, log10 nM": "ND", "control signals": "2/9 (3.05)"}

The measurements come from Engelhart et al. 2022 (doi:10.1038/s41597-022-01779-4) through the FLAb antibody collection.